Measurements as given in BindingDB's records for US9120797.

Sequences of proteins named here, by UniProt entry; tags and fusion partners are left off.
UniProt P41146, whole entry: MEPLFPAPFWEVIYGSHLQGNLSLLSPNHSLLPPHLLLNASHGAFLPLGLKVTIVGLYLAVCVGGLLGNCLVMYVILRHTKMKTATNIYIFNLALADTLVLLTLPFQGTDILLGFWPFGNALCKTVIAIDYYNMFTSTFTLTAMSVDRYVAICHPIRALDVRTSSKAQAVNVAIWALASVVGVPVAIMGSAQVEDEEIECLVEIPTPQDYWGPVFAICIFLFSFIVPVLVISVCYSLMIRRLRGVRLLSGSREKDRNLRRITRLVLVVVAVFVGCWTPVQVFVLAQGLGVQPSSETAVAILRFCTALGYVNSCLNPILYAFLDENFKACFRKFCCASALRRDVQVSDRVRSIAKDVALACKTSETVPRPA
UniProt P35372, whole entry: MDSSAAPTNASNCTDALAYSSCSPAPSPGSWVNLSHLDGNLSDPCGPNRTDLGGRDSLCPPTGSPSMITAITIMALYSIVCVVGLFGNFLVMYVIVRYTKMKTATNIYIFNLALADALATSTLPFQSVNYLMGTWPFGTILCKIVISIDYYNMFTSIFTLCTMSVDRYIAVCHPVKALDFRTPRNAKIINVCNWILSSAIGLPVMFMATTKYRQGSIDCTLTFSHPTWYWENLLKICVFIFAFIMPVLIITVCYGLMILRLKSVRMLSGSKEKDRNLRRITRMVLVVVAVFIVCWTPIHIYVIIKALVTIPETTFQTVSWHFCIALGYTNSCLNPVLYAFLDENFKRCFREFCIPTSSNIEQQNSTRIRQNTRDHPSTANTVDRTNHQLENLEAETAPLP

How the values were obtained:
[1] = biological target: Nociceptin receptor (Homo sapiens, UniProt P41146); test: Binding Assay; conditions: pH 7.4
[2] = biological target: Mu-type opioid receptor (Homo sapiens, UniProt P35372); test: Binding Assay

SMILES	Ki [1] [nM]	Ki [2] [nM]
CNC1(c2ccccc2)CCC2(CC1)OCCc1c2[nH]c2ccc(F)cc12 (centres undefined)	10	6.8
CNC1(c2ccccc2)CCC2(CC1)OCCc1c2[nH]c2ccccc12 (centres undefined)	1.4	1.2
